The target of assay [1] is aurora2 kinase (Homo sapiens, UniProt O14965). Briefly: In vitro aurora2 kinase inhibition test. The note with it: read-out: concentration giving 50% inhibition of enzyme activity; recombinant aurora2, 33P-ATP, biotinylated peptide substrate, 60 minutes at room temperature. The text has this:
(a) In Vitro Aurora2 Kinase Inhibition Test This assay determines the ability of a test compound to inhibit serine/threonine kinase activity. DNA encoding aurora2 may be obtained by total gene synthesis or by cloning. This DNA may then be expressed in a suitable expression system to obtain polypeptide with serine/threonine kinase activity. In the case of aurora2, the coding sequence was isolated from cDNA by polymerase chain reaction (PCR) and cloned into the BamH1 and Not1 restriction endonuclease sites of the baculovirus expression vector pFastBac HTc (GibcoBRL/Life technologies). The 5′ PCR primer contained a recognition sequence for the restriction endonuclease BamH1 5′ to the aurora2 coding sequence. This allowed the insertion of the aurora2 gene in frame with the 6 histidine residues, spacer region and rTEV protease cleavage site encoded by the pFastBac HTc vector. The 3′ PCR primer replaced the aurora2 stop codon with additional coding sequence followed by a stop codon and a recognition sequence for the restriction endonuclease Not1. This additional coding sequence (5′ […] 3′) encoded for the polypeptide sequence YPYDVPDYAS. This sequence, derived from the influenza hemagglutin protein, is frequently used as a tag epitope sequence that can be identified using specific monoclonal antibodies. […]

The chains behind the UniProt entries cited, without tags or fusion partners.
UniProt O14965, whole entry: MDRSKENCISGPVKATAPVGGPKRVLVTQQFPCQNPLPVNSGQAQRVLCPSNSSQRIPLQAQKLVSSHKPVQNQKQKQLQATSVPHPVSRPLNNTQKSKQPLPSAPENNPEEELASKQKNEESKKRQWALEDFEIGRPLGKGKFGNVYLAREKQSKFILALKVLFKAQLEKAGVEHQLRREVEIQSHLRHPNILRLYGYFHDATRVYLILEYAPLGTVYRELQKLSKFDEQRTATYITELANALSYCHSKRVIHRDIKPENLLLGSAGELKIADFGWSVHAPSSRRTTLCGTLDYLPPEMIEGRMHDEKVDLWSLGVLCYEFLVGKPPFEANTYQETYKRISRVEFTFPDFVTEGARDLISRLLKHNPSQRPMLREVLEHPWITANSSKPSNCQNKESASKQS

The test system of assay [2] is human tumour cell line MCF7. Briefly: In vitro cell proliferation assay. The note with it: read-out: concentration giving 50% inhibition of cell proliferation; MCF-7 cells, 3 days with compound, CyQUANT. The text has this:
(a) In Vitro Cell Proliferation Assay
This assay determines the ability of a test compound to inhibit the growth of adherent mammalian cell lines, for example the human tumour cell line MCF7. MCF-7 (ATCC HTB-22) or other adherent cells were typically seeded at 1×10^3 cells per well (excluding the peripheral wells) in DMEM (Sigma Aldrich) without phenol red, plus 10% foetal calf serum, 1% L-glutamine and 1% penicillin/streptomycin in 96 well tissue culture treated clear plates (Costar). The following day (day 1), the media was removed from a no treatment control plate and the plate stored at −80° C. The remaining plates were dosed with compound (diluted from 10 mM stock in DMSO using DMEM (without phenol red, 10% FCS, 1% L-glutamine, 1% penicillin/streptomycin). Untreated control wells were included on each plate. After 3 days in the presence/absence of compound (day 4) the media was removed and the plates stored at −80° C. Twenty four hours later the plates were thawed at room temperature and cell density determined using the CyQUANT cell proliferation assay kit (c-7026/c-7027 Molecular Probes Inc.) according to manufacturers directions. Briefly, 200 μl of a cell lysis/dye mixture (10 μl of 20× cell lysis buffer B, 190 μl of sterile water, 0.25 μl of CYQUANT GR dye) was added to each well and the plates incubated at room temperature for 5 minutes in the dark. […]

`COc1cc2c(Nc3cc(C(=O)Nc4ccc(F)cc4)n(C)c3)ncnc2cc1OCCCN1CCOCC1`: the IC50 in assay [1] is 0.089 µM; in assay [2] it was 5.9 µM.

For the origin of these results see patent US6919338B2, “Substituted quinazoline derivatives and their use as inhibitors of aurora-2 kinase” (AstraZeneca AB, priority 2000, dated 2005).
